The source of these data is ChEMBL document CHEMBL1130514, “Design and synthesis of conformationally constrained arginal thrombin inhibitors” (Bioorg Med Chem Lett, 1997).

For the assay, the target named is Prothrombin (Homo sapiens, UniProt P00734). Put plainly: In vitro ability to inhibit the activity of human alpha Thrombin.

For orientation: IC50 means the concentration that gives 50% inhibition. High values mean a need for much substance, low ones inhibition by little substance. In turn, `CC1CNc2c(cccc2S(=O)(=O)N[C@@H](CCCNC(=N)N)C(=O)N2CCC(C)C[C@@H]2C(=O)O)C1` (single isomer, unassigned) [ARGATROBAN] registered an IC50 of 39 nM.
